# In patent US5935998A, “Use of all allylamine derivatives such as terbinafine, in the manufacture of a medicament for the treatment of helicobacter pylori infection or associated diseases” (Novartis AG, priority 1995, dated 1999):
# Experiment: in vivo
# Details: mouse, acute
smiles,measurement,setting,value
CN(C/C=C/c1ccccc1)Cc1cccc2ccccc12,LD50,"ip, i.p., read-out: LD50 i.p.",~560 mg/kg
same,LD50,"po, p.o., read-out: LD50 p.o.",> 1000 mg/kg

# Like-named read-outs stand apart in the source and are kept apart here.
